Assay results taken from patent publication US20260042834A1, “ANTI-CORTICOTROPIN-RELEASING HORMONE ANTIBODIES AND POLYCYSTIC OVARY SYNDROME” (HBM ALPHA THERAPEUTICS, INC., priority 2022, published 2026).

B1: PR005658: ΔPTM variant of Series 1 mAb PR004290; HCDR2 54DG55, LCDR1 36QS37 (antibody)
heavy: EVQLVESGGVLVQPGGSLRLSCAASGFTFSSYWMTWVRQAPGKGLEWVANIKQDGSEKYYVDSVKGRFTISRDNAKNSLFLQMNSLRAEDTAVYYCARTLIFDYWGQGTLVTVSSASTKGPSVFPLAPSSKSTSGGTAALGCLVKDYFPEPVTVSWNSGALTSGVHTFPAVLQSSGLYSLSSVVTVPSSSLGTQTYICNVNHKPSNTKVDKKV[human IgG1 Fc not listed]
light: DIVMTQSPLSLPVTPGEPASISCRSSQSLLHSTGYQSLEWYLQKPGQSPQLLIYLGSNRASGVPDRFSGSGSGTDFTLKISRVEAEDVGIYYCMQTLQTPITFGQGTRLEIKRTVAAPSVFIFPPSDEQLKSGTASVVCLLNNFYPREAKVQWKVDNALQSGNSQESVTEQDSKDSTYSLSSTLTLSKADYEKHKVYACEVTHQGLSSPVTKSFNRGEC
B2: PR005662: ΔPTM variant of Series 1 mAb PR004290; HCDR2 54DA55, LCDR1 36QS37 (antibody)
heavy: EVQLVESGGVLVQPGGSLRLSCAASGFTFSSYWMTWVRQAPGKGLEWVANIKQDASEKYYVDSVKGRFTISRDNAKNSLFLQMNSLRAEDTAVYYCARTLIFDYWGQGTLVTVSSASTKGPSVFPLAPSSKSTSGGTAALGCLVKDYFPEPVTVSWNSGALTSGVHTFPAVLQSSGLYSLSSVVTVPSSSLGTQTYICNVNHKPSNTKVDKKV[human IgG1 Fc not listed]
light: DIVMTQSPLSLPVTPGEPASISCRSSQSLLHSTGYQSLEWYLQKPGQSPQLLIYLGSNRASGVPDRFSGSGSGTDFTLKISRVEAEDVGIYYCMQTLQTPITFGQGTRLEIKRTVAAPSVFIFPPSDEQLKSGTASVVCLLNNFYPREAKVQWKVDNALQSGNSQESVTEQDSKDSTYSLSSTLTLSKADYEKHKVYACEVTHQGLSSPVTKSFNRGEC
B3: PR006144: ΔPTM variant of Series 1 mAb PR004290; HCDR2 54EG55, LCDR1 36NP37 (antibody)
heavy: EVQLVESGGVLVQPGGSLRLSCAASGFTFSSYWMTWVRQAPGKGLEWVANIKQEGSEKYYVDSVKGRFTISRDNAKNSLFLQMNSLRAEDTAVYYCARTLIFDYWGQGTLVTVSSASTKGPSVFPLAPSSKSTSGGTAALGCLVKDYFPEPVTVSWNSGALTSGVHTFPAVLQSSGLYSLSSVVTVPSSSLGTQTYICNVNHKPSNTKVDKKV[human IgG1 Fc not listed]
light: DIVMTQSPLSLPVTPGEPASISCRSSQSLLHSTGYNPLEWYLQKPGQSPQLLIYLGSNRASGVPDRFSGSGSGTDFTLKISRVEAEDVGIYYCMQTLQTPITFGQGTRLEIKRTVAAPSVFIFPPSDEQLKSGTASVVCLLNNFYPREAKVQWKVDNALQSGNSQESVTEQDSKDSTYSLSSTLTLSKADYEKHKVYACEVTHQGLSSPVTKSFNRGEC
B4: PR005656: ΔPTM variant of Series 1 mAb PR004290; HCDR2 54EG55, LCDR1 36NS37 (antibody)
heavy: EVQLVESGGVLVQPGGSLRLSCAASGFTFSSYWMTWVRQAPGKGLEWVANIKQEGSEKYYVDSVKGRFTISRDNAKNSLFLQMNSLRAEDTAVYYCARTLIFDYWGQGTLVTVSSASTKGPSVFPLAPSSKSTSGGTAALGCLVKDYFPEPVTVSWNSGALTSGVHTFPAVLQSSGLYSLSSVVTVPSSSLGTQTYICNVNHKPSNTKVDKKV[human IgG1 Fc not listed]
light: DIVMTQSPLSLPVTPGEPASISCRSSQSLLHSTGYNSLEWYLQKPGQSPQLLIYLGSNRASGVPDRFSGSGSGTDFTLKISRVEAEDVGIYYCMQTLQTPITFGQGTRLEIKRTVAAPSVFIFPPSDEQLKSGTASVVCLLNNFYPREAKVQWKVDNALQSGNSQESVTEQDSKDSTYSLSSTLTLSKADYEKHKVYACEVTHQGLSSPVTKSFNRGEC
B5: PR006142: ΔPTM variant of Series 1 mAb PR004290; HCDR2 54EG55, LCDR1 36DS37 (antibody)
heavy: EVQLVESGGVLVQPGGSLRLSCAASGFTFSSYWMTWVRQAPGKGLEWVANIKQEGSEKYYVDSVKGRFTISRDNAKNSLFLQMNSLRAEDTAVYYCARTLIFDYWGQGTLVTVSSASTKGPSVFPLAPSSKSTSGGTAALGCLVKDYFPEPVTVSWNSGALTSGVHTFPAVLQSSGLYSLSSVVTVPSSSLGTQTYICNVNHKPSNTKVDKKV[human IgG1 Fc not listed]
light: DIVMTQSPLSLPVTPGEPASISCRSSQSLLHSTGYDSLEWYLQKPGQSPQLLIYLGSNRASGVPDRFSGSGSGTDFTLKISRVEAEDVGIYYCMQTLQTPITFGQGTRLEIKRTVAAPSVFIFPPSDEQLKSGTASVVCLLNNFYPREAKVQWKVDNALQSGNSQESVTEQDSKDSTYSLSSTLTLSKADYEKHKVYACEVTHQGLSSPVTKSFNRGEC
B6: PR006143 (antibody)
heavy: EVQLVESGGVLVQPGGSLRLSCAASGFTFSSYWMTWVRQAPGKGLEWVANIKQEGSEKYYVDSVKGRFTISRDNAKNSLFLQMNSLRAEDTAVYYCARTLIFDYWGQGTLVTVSSASTKGPSVFPLAPSSKSTSGGTAALGCLVKDYFPEPVTVSWNSGALTSGVHTFPAVLQSSGLYSLSSVVTVPSSSLGTQTYICNVNHKPSNTKVDKKV[human IgG1 Fc not listed]
light: DIVMTQSPLSLPVTPGEPASISCRSSQSLLHSTGYHSLEWYLQKPGQSPQLLIYLGSNRASGVPDRFSGSGSGTDFTLKISRVEAEDVGIYYCMQTLQTPITFGQGTRLEIKRTVAAPSVFIFPPSDEQLKSGTASVVCLLNNFYPREAKVQWKVDNALQSGNSQESVTEQDSKDSTYSLSSTLTLSKADYEKHKVYACEVTHQGLSSPVTKSFNRGEC
B7: PR006145 (antibody)
heavy: EVQLVESGGVLVQPGGSLRLSCAASGFTFSSYWMTWVRQAPGKGLEWVANIKQEGSEKYYVDSVKGRFTISRDNAKNSLFLQMNSLRAEDTAVYYCARTLIFDYWGQGTLVTVSSASTKGPSVFPLAPSSKSTSGGTAALGCLVKDYFPEPVTVSWNSGALTSGVHTFPAVLQSSGLYSLSSVVTVPSSSLGTQTYICNVNHKPSNTKVDKKV[human IgG1 Fc not listed]
light: DIVMTQSPLSLPVTPGEPASISCRSSQSLLHSTGYSSLEWYLQKPGQSPQLLIYLGSNRASGVPDRFSGSGSGTDFTLKISRVEAEDVGIYYCMQTLQTPITFGQGTRLEIKRTVAAPSVFIFPPSDEQLKSGTASVVCLLNNFYPREAKVQWKVDNALQSGNSQESVTEQDSKDSTYSLSSTLTLSKADYEKHKVYACEVTHQGLSSPVTKSFNRGEC

Key:
[1] = test system: human CRHR2; assay: CRH-induced luciferase reporter blocking assay, CHO-CRE-hCRHR2 cells; assay type: cell-based; conditions: CHO-CRE-hCRHR2 cells, 0.1 nM CRH
Experimental: (§1) To create CHO-CRE-hCRHR1, -hCRHR2, -mCRHR1, and -mCRHR2 reporter cell lines, pcDNA3.1-hCRHR1, -hCRHR2, -mCRHR1, and -mCRHR2 were introduced into CHO-CRE cells established above by electroporation as described above. Selection antibiotics hygromycin at 500 μg/ml and G418 at 1,000 μg/ml were employed. Individual established stable cell lines were characterized by both CRH and forskolin stimulation.
Activated GPCR proteins increase production of the intracellular cAMP. CHO-CRE-human CRHR1 stable clone 11 was generated by introduction of pcDNA3.1-human CRHR1 under the selection of G418 and hygromycin. Human CRHR1 expression in CHO-CRE-hCRHR1 Clone 11 was confirmed by flow cytometry (data not shown). To further validate that the cell line was functional, CHO-CRE-hCRHR1 Clone 11 cells were treated with forskolin and CRH peptide. […] Subsequently CHO-CRE-hCRHR2 Clone 32, -mCRHR1 Clone 22, and -mCRHR2 Clone 8 cell lines were established using similar methodology and validated with CRH treatment (data not shown).
Blocking CRHR1 by small molecules or neutralization of CRH peptide can reduce luciferase expression if the CRH-CRHR1 system works in CHO-CRE-hCRHR1 cells. Antalarmin, a small molecule CRHR1 antagonist, blocked CRH-mediated luciferase expression in CHO-CRE-hCRHR1 Clone 11 (data not shown). Furthermore, sheep anti-CRH polyclonal antibody reduced CRH-mediated luciferase expression in these cells (data not shown). Likewise, sheep anti-CRH polyclonal antibody blocked CRH-mediated luciferase expression in CHO-CRE-hCRHR2, CHO-CRE-mCRHR1, and CHO-CRE-mCRHR2 cells (data not shown).
(§2) Cells were digested by trypsin-EDTA (Life technologies, Cat #:12604-013), centrifuged at 1,000 rpm for 5 min, resuspended in growth medium, counted using a cell counter, seeded at a concentration of 5,000 cells per 100 μl in 96-well flat plates, and incubated overnight. 50 μl of 4× serially diluted antibodies was added (8 points, 1/4 diluted by growth medium) to plates containing CHO-CRE-hCRHR1 cells, and 50 μl of 4×CRH (4× is 2 nM, final is 0.5 nM) was added. Similarly, 4×CRH (4× is 0.4 nM, final is 0.1 nM) was added to CHO-CRE-hCRHR2 cells and CHO-CRE-mCRHR1 cells, and 4×CRH (4× is 20 nM, final is 5 nM) was added to CHO-CRE-mCRHR2 cells. Next, plates were incubated 4-6 hours at 37° C. in a CO2 incubator. 60 μl of culture medium was removed, to which was added 60 μl of Bio-Glo luciferase, followed by incubation for 10 min at RT. Plates were read in a luciferase plate reader (EnVision, PerkinElmer).

[2] = test system: mouse CRHR2; assay: CRH-induced luciferase reporter blocking assay, CHO-CRE-mCRHR2 cells; assay type: cell-based; conditions: CHO-CRE-mCRHR2 cells, 5 nM CRH
Experimental: as §1, with “stimulation. […]” for “stimulation.”
as §2

[3] = biological target: T1, biotinylated CRH (Homo sapiens, UniProt P06850); assay: Affinity determination with Octet; assay type: binding
T1 construct: purchased GL Biochem 784751
T1 sequence (P06850 154-194): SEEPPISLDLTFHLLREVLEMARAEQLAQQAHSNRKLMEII
Experimental: Octet® Red 96e was used for affinity measurement. Octet® running buffer was prepared by diluting kinetics buffer 10× (Fortebio, Cat #18-1105) in PBS according to the manufacturer's instructions. Two columns of SA sensors (Fortebio, Cat #18-5019) were hydrated in running buffer for 10 mins, one for ligand capturing and the other for reference. Antibodies were 2-fold diluted and added into a 96-well plate. 30 nM biotinylated CRH (GL Biochem, Cat #784751) was captured by the first column of SA sensors for 20 seconds, while reference sensors were dipped into buffer wells. After a 60-second baseline step, sensors were dipped into analyte and buffer wells successively, with the association and dissociation time of 180 seconds and 800 seconds, respectively. Sensors were regenerated in glycine pH1.5 (Cytiva, Cat #BR-1003-54) before the next cycle. […] Signals of reference wells and reference sensors were subtracted by selecting “Double reference” before data fitting.

Molecule	IC50 [1] [nM]	IC50 [2] [nM]	kdis [3] [s⁻¹]	kon [3] [M⁻¹ s⁻¹]
B1	76.5	19.4	9.11e-05	509000
B2	210	38.8	8.27e-05	396000
B3	2.64	–	4.47e-05	499000
B4	5.76	–	4.55e-05	–
B5	–	–	4.08e-05	333000
B6	–	–	2.85e-05	457000
B7	–	–	6.75e-05	222000
